Biological target: Cholinesterase (Homo sapiens, UniProt P06276)

Amino acid sequences for entries named in this document (tags omitted).
UniProt P06276, whole entry: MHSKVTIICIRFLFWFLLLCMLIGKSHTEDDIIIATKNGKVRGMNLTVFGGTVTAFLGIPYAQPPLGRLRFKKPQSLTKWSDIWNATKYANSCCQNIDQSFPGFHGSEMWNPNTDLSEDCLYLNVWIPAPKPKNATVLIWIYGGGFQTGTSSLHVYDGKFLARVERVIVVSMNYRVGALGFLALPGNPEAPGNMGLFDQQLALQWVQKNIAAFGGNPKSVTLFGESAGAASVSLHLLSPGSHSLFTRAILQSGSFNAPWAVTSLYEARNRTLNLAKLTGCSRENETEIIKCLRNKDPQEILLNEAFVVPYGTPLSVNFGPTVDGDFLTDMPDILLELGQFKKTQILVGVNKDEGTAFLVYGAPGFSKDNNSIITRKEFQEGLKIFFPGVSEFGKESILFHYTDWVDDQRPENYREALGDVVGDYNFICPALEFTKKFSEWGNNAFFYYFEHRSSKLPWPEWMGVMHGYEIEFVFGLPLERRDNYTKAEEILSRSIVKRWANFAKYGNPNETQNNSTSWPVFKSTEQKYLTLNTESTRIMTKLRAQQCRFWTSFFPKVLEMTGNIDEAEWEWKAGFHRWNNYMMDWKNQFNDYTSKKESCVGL

CCN(C)C(=O)Oc1cccc([C@H](C)N(C)C)c1 [RIVASTIGMINE]
IC50: 30.1 nM

— ChEMBL document CHEMBL1148814, “Novel class of quinone-bearing polyamines as multi-target-directed ligands to combat Alzheimer's disease” (J Med Chem, 2007)
